Measured values: publication PMC7508583, “Discovery and Preclinical Development of Antigiardiasis Fumagillol Derivatives” (Antimicrobial Agents and Chemotherapy, 2020)

Sequences of proteins named here, by UniProt entry; tags and fusion partners are left off. A change or cut given only in a name is not applied to a line headed by its entry.
UniProt P50579: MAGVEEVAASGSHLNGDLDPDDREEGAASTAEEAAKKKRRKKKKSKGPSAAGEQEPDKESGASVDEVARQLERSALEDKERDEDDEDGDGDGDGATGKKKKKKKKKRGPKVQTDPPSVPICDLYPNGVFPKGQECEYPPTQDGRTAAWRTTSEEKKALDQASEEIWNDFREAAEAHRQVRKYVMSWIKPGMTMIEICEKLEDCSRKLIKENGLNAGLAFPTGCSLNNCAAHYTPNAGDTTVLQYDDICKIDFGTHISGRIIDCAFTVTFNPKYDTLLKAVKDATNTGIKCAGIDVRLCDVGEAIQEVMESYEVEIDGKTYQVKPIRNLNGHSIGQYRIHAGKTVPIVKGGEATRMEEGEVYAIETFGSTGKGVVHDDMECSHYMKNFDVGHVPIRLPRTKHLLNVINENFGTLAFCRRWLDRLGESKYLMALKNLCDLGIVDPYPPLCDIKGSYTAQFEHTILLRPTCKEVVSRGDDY

Columns and labels:
[1] = system: G. lamblia GS trophozoites; test: Mouse giardiasis model efficacy; assay type: in vivo, Giardia lamblia
Description: The C57BL/6J mice were infected with G. lamblia GS trophozoites, treated for 4 days, and euthanized as described in Materials and Methods.
Compound efficacy was evaluated in the mature mouse giardiasis model reported previously ([18], [66]). Fifteen 4-week-old C57BL/6J female mice (The Jackson Laboratory, Bar Harbor, ME) were infected with G. lamblia GS or H7 trophozoites. For each experiment, the trophozoites (500,000 trophozoites suspended in 200 μl of TYI-S-33 medium) were administered by oral gavage to 15 mice. […] The remaining 5 untreated mice served as controls. The compounds were administered by oral gavage in 200 μl of TYI-S-33 medium supplemented with 0.5% DMSO. All mice were euthanized on day 7. […]
Two inches of the upper small intestine were dissected and washed with 2 ml of medium supplemented with antibiotics to produce axenized cultures (1 mg/ml each piperacillin and moxalactam and 10 μg/ml each vancomycin and polymyxin B, which is a modified mixture compared with that used earlier). […] Trophozoite growth was determined once daily by monitoring the ATP content using the ATPlite reagent.
The proliferation measurements were used to calculate growth curves and the trophozoite load of drug-treated mice compared with that of untreated mice. […] The percentage of the load relative to the N0 for untreated mouse samples was determined. […]

in vitro = conditions: human, Caco-2, pH 7.4
Text: Next, we tested the permeation of the compounds across polarized Caco-2 cell monolayers, a method that is widely used as an in vitro model of the human small intestinal mucosa to predict the absorption of orally administered drugs ([63], [64]). With noninvasive intestinal infections, there is no need to establish a high plasma concentration. Since a high rate of uptake through the host gut lining could increase compound toxicity, we sought to reduce gut absorption. […] Both apical-to-basal and basal-to-apical permeation values were measured to obtain information about efflux. […] The efflux machinery is currently unknown.
Passage 36 Caco-2 cells were used. […]
For sample processing, a single-point calibration curve in HBSS buffer with 2% BSA was used. […] One hundred microliters of the supernatant was diluted with 200 μl of water and analyzed by LC-MS/MS (with a Shimadzu ultrafast liquid chromatograph and an API 4000 LC-MS/MS system).
The apparent permeation coefficients (Papp) were calculated as Papp = (dQ/dT) × (1/C0) × (1/A), where dQ is the amount permeated to the receiver compartment of the 96-well plate, dT is the time of compound incubation, C0 is the initial compound concentration in the donor compartment of the well, and A is the surface area of the monolayer.

human MetAP2 = target: T1, human MetAP2 (Homo sapiens, UniProt P50579); test: MetAP2 fluorescence assay; assay type: biochemical
T1 construct: purchased Bio-Techne/R&D Systems
Description: Based on the available crystal structures of MetAP2 complexes, the fumagillol core binds in a crowded environment, forming exquisite electrostatic interactions. Therefore, there is little room for the core fumagillol scaffold to adopt a different mode of binding. In contrast, the R group at C-6 can vary substantially because it is mostly solvent exposed. The L groups bind in a narrow site at the active-site entrance.
Recombinant human MetAP2 (Bio-Techne/R&D Systems) was diluted to 10 μg/ml in the assay buffer (50 mM HEPES, 0.1 mM CoCl2, 100 mM NaCl, pH 7.5). The substrate H-Met-Gly-Pro-7-amido-4-methylcoumarin (Bio-Techne/R&D Systems) was diluted to 500 μM with 2 μg/ml of the coupling enzyme, recombinant human dipeptidyl peptidase 4 (Bio-Techne/R&D Systems), in assay buffer. Fifty microliters of 10-μg/ml recombinant human MetAP2 was loaded into a flat-bottom black 96-well plate (Greiner Bio), and the reaction was initiated by adding 50 μl of the substrate/dipeptidyl peptidase 4 mixture. The reaction mixture was incubated at room temperature for 10 min, and the fluorescence was measured for 5 min at excitation and emission wavelengths of 380 nm and 460 nm, respectively, in the kinetic mode. For IC50 determination, 0.5 μl inhibitor solution was added to the reaction mixture. […]

[2] = system: G. lamblia GS trophozoites; test: Trophozoite viability MLC determination; assay type: cell-based, Giardia lamblia
Description: The inhibition of metabolism enables the organism to resume proliferation once treatment is completed. To discriminate between the lethality of the promising compounds and the induction of metabolic inactivity by the promising compounds, the minimum lethal concentration (MLC) values were determined by treating the trophozoites with the test compounds for 3 days and transferring the resulting cultures to medium lacking the compounds for 3 days of proliferation. This assay was described previously for G. lamblia ([18]) and was adapted to E. histolytica in the current study.
Trophozoites of G. lamblia isolates WB and GS were grown anaerobically in borosilicate glass screw-cap culture tubes (Fisher Scientific) at pH 7.0 in Keister’s modified TYI-S-33 medium (ATCC). The medium was supplemented with 10% heat-inactivated bovine serum (Sigma-Aldrich) and 0.05% bovine bile (Sigma-Aldrich). To attain low-oxygen-tension conditions, the tubes were filled to 85% to 90% of their total volume capacity and incubated without shaking at 37°C. Subcultures (2 × 10^5 trophozoites per tube) were made three times a week. Detachment of trophozoites for inoculation was achieved by chilling the cultures on ice for 20 min. […]

[3] = Single-dose acute toxicity (MTD) and histopathology
Description: The tissues of three surviving mice were analyzed along with the tissues of three animals treated with the vehicle alone. […] Based on these findings, the maximum tolerated dose (MTD) value was determined to be 1,500 mg/kg.
The maximum tolerated dose (MTD) determination was performed using 8- to 10-week-old C57BL/6 female mice in five groups of 6 animals each. The mice were acclimated to the study room for a week. Animals were randomized by body weight prior to being assigned to dosage groups at the outset of the study. […] Following an up-down dosing strategy, the clinical signs and body weights of the animals in a study group were evaluated daily for 5 days before escalating or reducing the dose administered to the next group, as appropriate. The clinical observations included posture, vocalization, ease of handling, lacrimation, chromodacryorrhea, salivation, coat appearance, rearing frequency, transfer arousal, piloerection, motor movements, tail pinch, and diarrhea.
The histopathology examination included 3 mice that survived treatment with the 2,000-mg/kg dose and 3 mice that received the vehicle alone. Brain, heart, lung, spleen, and liver tissues were examined. Formalin-fixed tissues were embedded in paraffin to produce 4-μm-thick sections. The paraffin wax was removed, and the tissues were stained with Gill’s hematoxylin for 5 to 10 min. […]

CO[C@@H]1[C@H](OC(=O)Nc2ccc(C(=O)O)cc2)CC[C@]2(CO2)[C@H]1[C@@]1(C)O[C@@H]1CC=C(C)C [Compound 9, 4-(((((3R,4S,5S,6R)-5-methoxy-4-((2R,3R)-2-methyl-3-(3-methylbut-2-en-1-yl)oxiran-2-yl)-1-oxaspiro[2.5]octan-6-yl)oxy)carbonyl)amino)benzoic acid]
fold lower ED50 than fumagillin [1]: 4 fold | efflux ratio at 120 min, 10 µM (in vitro): 1.9 | IC50 of compound/IC50 of fumagillin (human MetAP2): 2.75 | fold improved MLCs compared with the MLC of fumagillin [2]: ~100 fold | MTD relative to fully curative dose ([3]; 1,500 mg/kg vs 6.6 mg/kg): 227 fold | therapeutic index LD50/ED50 ([3]; 2,000/0.064): > 31,250
